Data taken from patent US7919495B2, “Pyridyl non-aromatic nitrogen-containing heterocyclic-1-carboxylate compound” (Astellas Pharma, Inc., priority 2005, dated 2011).

Protein sequences, listed by entry. Tags and fused reporters are not part of them.
UniProt P97612, whole entry, looked up: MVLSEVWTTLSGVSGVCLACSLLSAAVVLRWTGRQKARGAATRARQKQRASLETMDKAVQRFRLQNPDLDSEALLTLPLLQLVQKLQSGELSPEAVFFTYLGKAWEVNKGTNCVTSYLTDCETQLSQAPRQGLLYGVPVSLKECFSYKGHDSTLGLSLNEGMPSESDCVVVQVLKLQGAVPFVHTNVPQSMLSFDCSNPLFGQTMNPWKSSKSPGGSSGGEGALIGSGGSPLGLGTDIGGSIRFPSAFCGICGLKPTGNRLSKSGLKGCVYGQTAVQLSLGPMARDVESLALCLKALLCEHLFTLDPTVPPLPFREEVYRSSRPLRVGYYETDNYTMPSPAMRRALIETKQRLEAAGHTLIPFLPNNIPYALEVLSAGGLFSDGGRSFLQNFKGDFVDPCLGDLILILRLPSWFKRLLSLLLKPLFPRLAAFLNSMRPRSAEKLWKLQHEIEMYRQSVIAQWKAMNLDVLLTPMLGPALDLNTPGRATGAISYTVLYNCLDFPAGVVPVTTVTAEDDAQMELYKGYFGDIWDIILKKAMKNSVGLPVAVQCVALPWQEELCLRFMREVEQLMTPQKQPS
UniProt O00519, whole entry, looked up: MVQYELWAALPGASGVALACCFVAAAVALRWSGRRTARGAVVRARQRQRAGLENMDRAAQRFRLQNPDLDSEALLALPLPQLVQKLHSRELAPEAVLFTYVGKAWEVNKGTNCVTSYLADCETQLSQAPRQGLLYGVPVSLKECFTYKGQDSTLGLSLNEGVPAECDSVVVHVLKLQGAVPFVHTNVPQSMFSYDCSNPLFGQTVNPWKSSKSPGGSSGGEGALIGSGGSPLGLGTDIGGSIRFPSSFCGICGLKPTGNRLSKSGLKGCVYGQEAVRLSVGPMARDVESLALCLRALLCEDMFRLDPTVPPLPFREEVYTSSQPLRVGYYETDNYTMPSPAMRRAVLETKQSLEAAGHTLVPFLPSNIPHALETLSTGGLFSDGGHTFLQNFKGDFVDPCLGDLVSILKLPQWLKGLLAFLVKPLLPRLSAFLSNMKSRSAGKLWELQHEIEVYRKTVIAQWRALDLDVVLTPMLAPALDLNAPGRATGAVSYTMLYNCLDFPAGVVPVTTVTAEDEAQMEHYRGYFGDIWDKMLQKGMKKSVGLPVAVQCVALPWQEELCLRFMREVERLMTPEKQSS

target: FAAH (rat brain homogenate) (Rattus norvegicus, UniProt P97612); assay: not given; conditions: read-out: IC50 (FAAH activity), radiolabeled anandamide substrate, 1 hour

SMILES | IC50
O=C(O)c1cncc(OC(=O)N2CCC(CCc3ccccc3)CC2)c1 | 0.37 nM
NC(=O)c1cccc(CCC2CCN(C(=O)Oc3cncc(C(N)=O)c3)CC2)c1 | 0.54 nM
O=C(O)c1cncc(OC(=O)N2CCC(/C=C/c3ccccc3)CC2)c1 | 0.65 nM

target: FAAH in human bladder epithelial cancer-derived cell line 5678 cells (Homo sapiens, UniProt O00519); assay: Screening for FAAH activity-inhibiting substance with human bladder epithelial cancer-derived cell (IC50, Table 64); format: cell-based; conditions: read-out: cell FAAH IC50
Description: Screening for FAAH Activity-Inhibiting Substance with Human Bladder Epithelial Cancer-Derived Cell
(1) Screening for FAAH Activity-Inhibiting Substance:
Human bladder epithelial cancer-derived cell line […] cells (HTB-9; ATCC) were seeded on a 48-well cell culture plate in an amount of 1×10^5 cell/well, using 10% fetal bovine serum (HyClone)-containing RPMI1640 medium (Invitrogen). After incubated at 37° C. for at least 12 hours, the cells were washed with 400 μl/well of a buffer (Hank's Balanced Salt Solution, 20 mM Hepes-NaOH (pH 7.4)). A test substance dissolved in DMSO was added to a substrate solution (the above buffer containing 3 μCi/ml radiolabeled anandamide (Anandamide [ethanolamine 1-3H]) and 10 μM anandamide) so as to have a concentration of from 0.003 nM to 30 nM. As a control, DMSO alone was added. 100 μl/well of the substrate solution was added to the above cells, and incubated in a CO2 incubator at 37° C. for 30 minutes. Next, the cell culture plate was transferred onto ice, and the substrate solution was removed by suction; and 75 μl/well of a cytolytic solution (the above buffer containing 0.5% Triton X-100, and 10 μM of FAAH-inhibitory activity-having compound, 3′-carbamoylbiphenyl-3-yl cyclohexylcarbamate (URB597; Cayman chemical; Kathuria et al., Nature Med., Vol. 9, pp. 76-81, 2003)) was added thereto, followed by stirring. The resulting cell lysate in every well was individually transferred into a 1.5 ml sample tube, to which was added 150 μl of 1:1 (by volume) chloroform/methanol solution, followed by vortexing. This was centrifuged (15000 rpm, 2 minutes), whereby the decomposed product, ethanolamine (ethanolamine 1-^3H) was separated in the upper layer (water/methanol layer) and the unreacted radiolabeled anandamide was in the lower layer (chloroform layer). 25 μl of the upper layer was transferred into a 96-well organic solvent-resistant white microplate (PicoPlate-96; Perkin Elmer), 150 μl of Microscint-20 (Perkin Elmer) was added thereto, and this was measured with a microplate scintillation counter (TopCount™; Beckman). As compared with the control, the substance that gave a decreased value was selected as an FAAH activity-inhibiting substance.
(2) Measurement of IC50 Value of FAAH Activity-Inhibiting Substance:
A test compound dissolved in DMSO to have a concentration of 10 mM was dissolved in the substrate solution so as to have a varying concentration of from 0.003 nM to 30 μM. According to the method mentioned above, the compound was analyzed for its influence on FAAH activity. As a negative control, DMSO was used. As a positive control, URB597 was added to the substrate solution to have a concentration of 10 μM. Based on the measured value of the positive control, 0%, and on the measured value of the negative control, 100%, IC50 value of the test substance was obtained.

SMILES | IC50
O=C(Oc1cccnc1)N1CCC(COc2ccc3c(c2)OCO3)CC1 | 0.072 nM
O=C(Oc1cccnc1)N1CCC(Oc2cccc(OCC3CCCCC3)c2)CC1 | 0.3 nM
O=C(CCCCCc1ccccc1)NC1CCN(C(=O)Oc2cccnc2)CC1 | 0.11 nM
O=C(OCc1ccccc1)N1CCN(C(=O)Oc2cccnc2)CC1 | 0.093 nM
O=C(Oc1cccnc1)N1CCC(Oc2ccc(OCC3CCCCC3)cc2)CC1 | 0.67 nM
NC(=O)c1cccc(OCCCC2CCN(C(=O)Oc3cccnc3)CC2)c1 | 0.078 nM
O=C(Oc1cccnc1)N1CCN(CCCCCc2ccccc2)CC1 | 0.077 nM
O=C(Oc1cccnc1)N1CCC(Cc2ccccc2)CC1 | 0.1 nM
COc1cccc(CCC2CCN(C(=O)Oc3cncc(C(N)=O)c3)CC2)c1 | 0.04 nM
CCOC(=O)COc1cccc(C2CCN(C(=O)Oc3cccnc3)CC2)c1 | 0.071 nM
NC(=O)c1ccc(OCCC2CCN(C(=O)Oc3cccnc3)CC2)cc1 | 0.21 nM
O=C(O)c1cncc(OC(=O)N2CCC(CCc3ccccc3)CC2)c1 | 0.89 nM
O=C(Oc1cncc(Cl)c1)N1CCN(CCc2ccccc2)CC1 | 0.44 nM
O=C(NCCO)c1cncc(OC(=O)N2CCC(CCc3cccc(Cl)c3)CC2)c1 | 0.12 nM
NC(=O)c1cccc(CCC2CCN(C(=O)Oc3cncc(C(N)=O)c3)CC2)c1 | 0.5 nM
O=C(O)c1cncc(OC(=O)N2CCC(CCc3ccc(Cl)cc3)CC2)c1 | 0.36 nM
O=C(O)c1cncc(OC(=O)N2CCC(CCc3ccc(Br)cc3)CC2)c1 | 0.47 nM
O=C(NCCc1ccccc1)C1CCN(C(=O)Oc2cccnc2)CC1 | 0.6 nM
N#Cc1cccc(CCC2CCN(C(=O)Oc3cncc(C(N)=O)c3)CC2)c1 | 0.062 nM
NC(=O)c1cncc(OC(=O)N2CCC(CCc3cccc(F)c3)CC2)c1 | 0.058 nM
O=C(Oc1cccnc1)N1CCC(COC/C=C/c2ccccc2)CC1 | 0.066 nM
O=C(Oc1cccnc1)N1CCC(Oc2ccc3c(c2)OCO3)CC1 | 0.35 nM

SMILES | IC50
O=C(Oc1cccnc1)N1CC=C(c2ccccc2)CC1 | 0.028 nM
O=C(Oc1cccnc1)N1CCC(/C=C/c2ccccc2)CC1 | 0.15 nM
O=C(Oc1cccnc1)N1CCN(c2ccccc2)CC1 | 0.04 nM
O=C(Oc1cccnc1)N1CCC(c2ccc(F)cc2)CC1 | 0.033 nM
O=C(c1ccccc1)C1CCN(C(=O)Oc2cccnc2)CC1 | 0.2 nM
O=C(Oc1cccnc1)N1CCN(c2ccc(OCc3ccccc3)cc2)CC1 | 0.046 nM
NC(=O)COc1cccc(C2CCN(C(=O)Oc3cccnc3)CC2)c1 | 0.06 nM
COC(=O)c1cncc(OC(=O)N2CCC(CCC3CCCCC3)CC2)c1 | 0.48 nM
CNC(=O)c1ccc(OCCCC2CCN(C(=O)Oc3cccnc3)CC2)cc1 | 0.099 nM
O=C(Oc1cccnc1)N1CCC(COCc2ccccc2)CC1 | 0.012 nM
O=C(O)c1cncc(OC(=O)N2CCC(CCCCc3ccccc3)CC2)c1 | 0.031 nM
O=C(Oc1cncc(Br)c1)N1CCC(CCc2ccccc2)CC1 | 0.17 nM
Cn1c(CCCC2CCN(C(=O)Oc3cccnc3)CC2)nc2ccccc21 | 0.057 nM
O=C(Oc1cccnc1)N1CCC(OCc2ccccc2)CC1 | 0.044 nM
NC(=O)c1cncc(OC(=O)N2CCC(CCC3CCCCC3)CC2)c1 | 0.13 nM
O=C(NCc1ccccc1)C1CCN(C(=O)Oc2cccnc2)CC1 | 0.13 nM
O=C(NCCCCc1ccccc1)C1CCN(C(=O)Oc2cccnc2)CC1 | 0.37 nM
CN(C)C(=O)c1ccc(OCCCC2CCN(C(=O)Oc3cccnc3)CC2)cc1 | 0.26 nM
O=C(O)c1cncc(OC(=O)N2CCC(CCc3cccc(Br)c3)CC2)c1 | 0.65 nM
N#Cc1ccccc1CCC1CCN(C(=O)Oc2cncc(C(N)=O)c2)CC1 | 0.085 nM
O=C(CCc1ccccc1)N1CCN(C(=O)Oc2cccnc2)CC1 | 0.35 nM
NC(=O)c1ccc(OCCCC2CCN(C(=O)Oc3cccnc3)CC2)cc1 | 0.095 nM

SMILES | IC50
NC(=O)c1ccc(COC2CCN(C(=O)Oc3cccnc3)CC2)cc1 | 0.41 nM
O=C(O)c1cncc(OC(=O)N2CCC(CCc3cccc(Cl)c3)CC2)c1 | 0.37 nM
NC(=O)c1ccccc1OCCCC1CCN(C(=O)Oc2cccnc2)CC1 | 0.052 nM
O=C(O)c1cncc(OC(=O)N2CCC(CCC3CCCCC3)CC2)c1 | 0.16 nM
O=C(Oc1cccnc1)N1CCN(CCc2ccccc2)CC1 | 0.18 nM
O=C(Oc1cccnc1)N1CCC(O)(c2ccccc2)CC1 | 0.69 nM
O=C(Oc1cccnc1)N1CCC(Oc2ccccc2)CC1 | 0.23 nM
CC(=O)C1(c2ccccc2)CCN(C(=O)Oc2cccnc2)CC1 | 0.3 nM
NC(=O)c1cncc(OC(=O)N2CCC(CCc3ccccc3)CC2)c1 | 0.081 nM
N#Cc1ccc(OCCCC2CCN(C(=O)Oc3cccnc3)CC2)cc1 | 0.052 nM
NC(=O)c1ccc(CCC2CCN(C(=O)Oc3cccnc3)CC2)cc1 | 0.12 nM
O=C(NCCO)c1cncc(OC(=O)N2CCC(CCc3ccccc3)CC2)c1 | 0.24 nM
O=C(Oc1cccnc1)N1CCC(c2cccc(OCc3ccccc3)c2)CC1 | 0.081 nM
O=C(NCCO)c1cncc(OC(=O)N2CCC(CCc3cccc(F)c3)CC2)c1 | 0.39 nM
O=C(Oc1cccnc1)N1CCC(/C=C\c2ccccc2)CC1 | 0.081 nM
O=C(NCCCO)c1cncc(OC(=O)N2CCC(CCc3ccccc3)CC2)c1 | 0.33 nM
O=C(/C=C/c1ccccc1)N1CCN(C(=O)Oc2cccnc2)CC1 | 0.58 nM
NC(=O)c1ccc(/C=C/C2CCN(C(=O)Oc3cccnc3)CC2)cc1 | 0.41 nM
O=C(Oc1cccnc1)N1CCC(Oc2ccc(O)cc2)CC1 | 0.58 nM
O=C(O)c1cncc(OC(=O)N2CCC(CCc3ccccc3Cl)CC2)c1 | 0.43 nM
NC(=O)c1cncc(OC(=O)N2CCC(CCc3ccccc3F)CC2)c1 | 0.048 nM
O=C(Oc1cccnc1)N1CCC(CCOCc2ccccc2)CC1 | 0.063 nM

system: L5/L6 spinal nerve-ligated rat; assay: Anti-allodynia effect in L5/L6 spinal nerve-ligated rat (neuropathic pain model), von Frey hair test; conditions: 10 mg/kg oral administration, 60 minutes before response threshold measurement; operated paw 0%, non-operated paw 100% of the solvent group

SMILES | anti-allodynia potency
O=C(/C=C/c1ccccc1)N1CCN(C(=O)Oc2cccnc2)CC1 | 74%

system: CPA-induced urinary frequency in rat; assay: Effect of compound on cyclophosphamide (CPA)-induced urinary frequency in rat; format: in vivo; conditions: oral administration, Wistar female rats 2 days after CPA 100 mg/kg i.p.

SMILES | effective dose (increase of reduced effective bladder capacity)
O=C(O)c1cncc(OC(=O)N2CCC(CCc3ccccc3)CC2)c1 | 1 mg/kg
NC(=O)c1cccc(CCC2CCN(C(=O)Oc3cncc(C(N)=O)c3)CC2)c1 | 1 mg/kg
O=C(O)c1cncc(OC(=O)N2CCC(/C=C/c3ccccc3)CC2)c1 | 1 mg/kg
